In publication doi:10.1101/2023.08.25.554718:

What was measured:
[1] = molecular target: CX3CR1 nucleosome containing ^3AH2A (human) (UniProt P04908); test: native gel or EMSA; 0.5 μM nucleosome mixed with purified protein at different concentrations, 30 min, room temperature, 20 mM HEPES pH 7.3, 150 mM NaCl, 0.5 mM TCEP; 4% or 5% acrylamide gel in 0.2 x TBE at 4 °C; apparent Kd from a fit to the Hill equation
[2] = molecular target: CX3CR1 nucleosome (human core histones, wild type) (human) (UniProt P04908); test: as above
PU.1 full-length (mouse) = PU.1 full-length (mouse) (UniProt P17433); test: EMSA; conditions: EMSA: 20 mM HEPES pH 7.3, 150 mM NaCl, 0.5 mM TCEP, 30 min room temperature, 0.5 uM nucleosome or DNA, FRET: 20 mM HEPES pH 7.1, 100 mM NaCl

Q: “PU.1 ETS (^ETSPU.1, residue 165–272) (from UniProt P17433 165-272) (domain or fragment)” was tested. Which fold reduction of the binding affinity against ^ETSPU.1 on the nucleosome with wild-type H2A [1] did it give?
A: Its fold reduction of the binding affinity against ^ETSPU.1 on the nucleosome with wild-type H2A is 3 fold.

Q: “PU.1, full-length, wild type (from UniProt P17433 1-272) (natural protein)” was tested. Which Kd [2] did it give?
A: Its Kd is 650 nM.

Q: How did the Kd (PU.1 full-length (mouse)) turn out when “TAGGTGCAGGGCCTCTCGGCTGCTGATCTTCAGCTGGTTGCTGAGAGTTGCAGCATTGCTGAGTCTTAGCAATGGATACTTCCCGATTCCCCTCACAAAAATAGGTCAGTCTGTCTGGCTAGTTCTGTACTTGCAGACACAGGGCATGTGGGGTTCCTATTT (double strand) [162 bp CX3CR1 nucleosome]” was run?
A: Its Kd is 650 nM.
